Apparent affinities of Ab-91 variants for a coronavirus HR2 peptide

Target: peptide PDVDLGDISGINAS, taken from heptad repeat 2 (HR2) of SARS-CoV-2 spike.

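The starting antibody came from a phage panning campaign against this peptide. The library (AAYL51) carries one to three amino acid substitutions per variant, with no insertions or deletions. The assay is AlphaSeq: two haploid yeast populations carry antibody and antigen on their surface. Mating (16 h, 30 °C) was followed by selection of diploids and sequencing of their barcodes. Each replicate has its own calibration line, from reference interactions of the BCL2 family. Each pool was mated in three replicate cultures.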

Parent: Ab-91, a human scFv built as VL, three GGGGS repeats, VH. Only the CDRs of the heavy chain vary.
VL: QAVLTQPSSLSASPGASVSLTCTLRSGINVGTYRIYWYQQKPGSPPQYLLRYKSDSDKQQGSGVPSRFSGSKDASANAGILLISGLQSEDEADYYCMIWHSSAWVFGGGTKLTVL
VH: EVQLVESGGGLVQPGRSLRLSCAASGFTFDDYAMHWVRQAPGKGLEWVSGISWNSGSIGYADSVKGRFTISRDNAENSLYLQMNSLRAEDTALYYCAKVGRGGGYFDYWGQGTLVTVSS

Substitutions are numbered in sequence along the VH above, starting at 1 (not Kabat).
Every variant below is changed at S63 of the VH (sequential numbering).
Each Kd is an estimate from the mating assay, the geometric mean of the replicates in which the pair was seen; lower is stronger.
Where no diploid with the target was found in any replicate, the entry reads "nd": below detection, most likely a poor binder, though not proof of it.
Empty control strains, which show no peptide, gave a signal in 21% of pairings with library AAYL51; the median was 34 µM and 95% of these signals were weaker than 1.8 µM. No background was subtracted.

The variant N54G/S63Y/G102L gave nd (0 of 3 replicates). For S52A/S63H/G102H, the assay gave 18 µM (2 of 3 replicates). For N54P/S63A/G100M, the assay gave nd (0 of 3 replicates). With I51T/S57Y/S63L the result was nd (0 of 3 replicates). For D30M/A61Q/S63A, the assay gave 330 nM (3 of 3 replicates). The variant N54V/S63I/G103D gave nd (0 of 3 replicates). The variant D62T/S63H/D107G gave 470 nM (3 of 3 replicates). For S52I/Y60D/S63L, the assay gave 240 µM (1 of 3 replicates).

The variant S63M/K65S/F106V gave nd (0 of 3 replicates). The variant N54R/S63C/V64M showed nd (0 of 3 replicates). The variant G26I/Y60G/S63T gave nd (0 of 3 replicates). The variant D30M/A61M/S63D gave nd (0 of 3 replicates). The variant G50L/S63P/R101T gave 110 µM (1 of 3 replicates). The variant F29D/H35I/S63M gave 5.0 µM (1 of 3 replicates). The variant I51T/W53R/S63I showed 200 µM (2 of 3 replicates). With H35D/S63M/F106V the result was nd (0 of 3 replicates).

The variant G26N/D30Y/S63Q showed 780 nM (1 of 3 replicates). For G59C/S63L/Y105V, the assay gave nd (0 of 3 replicates). The variant D31S/S63M/G103K showed nd (0 of 3 replicates). The variant Y60S/D62N/S63G gave nd (0 of 3 replicates). For I58C/S63T/Y108D, the assay gave 17 µM (1 of 3 replicates). For S63M/G100S/D107Y, the assay gave 7.5 nM (3 of 3 replicates). The variant S52C/G56M/S63G showed nd (0 of 3 replicates). With S63C/G100A the result was 14 µM (3 of 3 replicates).

For W53P/S63K, the assay gave 26 nM (3 of 3 replicates). The variant Y32A/S63V/F106N showed nd (0 of 3 replicates). With S55Y/S63I the result was 63 µM (2 of 3 replicates). The variant I58A/S63Q showed 27 nM (3 of 3 replicates). With H35Y/S63C the result was 120 µM (1 of 3 replicates). With H35G/S63K/R101F the result was 2.9 µM (1 of 3 replicates). The variant S52Q/S63N/F106V showed 4.7 µM (2 of 3 replicates). For I51A/G56I/S63T, the assay gave nd (0 of 3 replicates).

For G26K/S63Q, the assay gave 490 nM (1 of 3 replicates). The variant G50S/S63L gave nd (0 of 3 replicates). The variant A61W/S63R showed nd (0 of 3 replicates). The variant S63K/F106Q showed 10 µM (3 of 3 replicates). With G59T/S63D the result was 40 µM (3 of 3 replicates). The variant F27D/S63M/K65F gave nd (0 of 3 replicates). For Y32I/G56D/S63R, the assay gave nd (0 of 3 replicates). The variant I51E/W53I/S63K gave 78 µM (2 of 3 replicates).

The variant G50L/S63G gave 52 µM (2 of 3 replicates). The variant H35V/S63F gave 30 µM (2 of 3 replicates). With S55V/S63N/K65I the result was 5.4 µM (3 of 3 replicates). For S63R/Y108G, the assay gave 5.9 nM (3 of 3 replicates). With A33D/S63H/D107T the result was nd (0 of 3 replicates). For S52N/S63K/G104Y, the assay gave nd (0 of 3 replicates).

Repeated from above, the 3 best binders with a signal in all replicates:

changes,Kd,seen in
S63R/Y108G,5.9 nM,3/3
S63M/G100S/D107Y,7.5 nM,3/3
W53P/S63K,26 nM,3/3

Parent in this assay: reference entry 72 nM, copy in this library 7.5 nM.

Data: MIT Lincoln Laboratory AlphaSeq set, Engelhart et al. 2022, doi:10.1038/s41597-022-01779-4, as distributed in FLAb.